Reference: US5620676A, “Biologically active ATP analogs” (priority 1995, dated 1997)

Protein sequences, listed by entry. Tags and fused reporters are not part of them. Lines headed by an entry give the natural chain unless they say otherwise; changes in a name come on top.
UniProt P49652: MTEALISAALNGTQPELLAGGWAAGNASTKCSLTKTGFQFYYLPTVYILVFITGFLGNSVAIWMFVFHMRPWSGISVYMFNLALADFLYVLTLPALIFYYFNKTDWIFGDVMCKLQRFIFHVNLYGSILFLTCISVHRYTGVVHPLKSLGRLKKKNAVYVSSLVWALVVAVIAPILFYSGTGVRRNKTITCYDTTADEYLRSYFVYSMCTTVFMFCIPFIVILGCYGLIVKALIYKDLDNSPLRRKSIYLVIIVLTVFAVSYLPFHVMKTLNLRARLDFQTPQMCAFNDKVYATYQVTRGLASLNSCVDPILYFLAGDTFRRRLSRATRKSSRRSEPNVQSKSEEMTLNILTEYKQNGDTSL

Target: T1, P2Y receptor (turkey erythrocyte membranes) (Meleagris gallopavo, UniProt P49652)
T1 construct: from tissue; host or cells: washed turkey erythrocytes, ghosts prepared by hypotonic lysis
Assay: Stimulation of phospholipase C (inositol phosphate formation) in turkey erythrocyte membranes
Format: biochemical
Method: Phospholipase C activity: Stimulation of inositol phosphate formation by compounds of the present invention was measured in turkey erythrocyte membranes as described by Harden et al., supra and Boyer et al., supra. The K0.5 values were averaged from 3-8 independently determined dose-response curves for each compound. Briefly, one ml of washed turkey erythrocytes was incubated in inositol-free medium (DMEM; Gibco) with 0.5-1 mCi of 2-[^3 H]myoinositol (20 Ci/mmol; American Radiolabeled Chemicals Inc., St. Louis, Mo.)for 18-24 h in a humidified atmosphere of 95% air 5% CO2 at 37° C. Erythrocyte ghosts were prepared by rapid lysis in hypotonic buffer (5 mM sodium phosphate, pH 7.4, 5 mM MgCl2, 1 mM EGTA) as described by Boyer et al., supra. Phospholipase C activity was measured in 25 μl of [^3 H]inositol-labeled ghosts (≈175 μg of protein, 200-500,000 cpm/assay) in a medium containing 424 μM CaC12, 0.91 mM MgSO4, 2 mM EGTA, 115 mM KCl, 5 mM KH2 PO4, and 10 mM Hepes, pH 7.0. […] Ghosts were incubated at 30° C. for 5 min, and total [^3 H]inositol phosphates were quantitated after purification by anion exchange chromatography according to Harden et al. (supra) and Boyer et al. (supra). […]
Phospholipase C activity and muscle relaxation/contraction effects were assessed using the methods recited in Example 3. […]

## CSc1nc(N)c2ncn([C@@H]3O[C@H](COP(=O)(O)OP(=O)(O)O)[C@@H](O)[C@H]3O)c2n1 [2-MeS-ADP, 2-methylthio-ADP, reference compound]
Mean ± S.E.M. for at least 2 determinations, read-out: phosphatidyl inositol metabolism (K0.5, nM) erythrocyte
  EC50: 6 ± 3 nM
read-out: K0.5
  EC50: 6 nM

Read-outs that look alike come from different tables or passages of the source.
